Patent publication US11633415B2, “Compounds and methods useful for treating or preventing cancers” (priority 2017, dated 2023)

By UniProt entry, the sequences of proteins in these tests, tags left out. Where a name states a change or a piece, a line headed by the entry shows the natural chain unless it says otherwise.
UniProt P48729: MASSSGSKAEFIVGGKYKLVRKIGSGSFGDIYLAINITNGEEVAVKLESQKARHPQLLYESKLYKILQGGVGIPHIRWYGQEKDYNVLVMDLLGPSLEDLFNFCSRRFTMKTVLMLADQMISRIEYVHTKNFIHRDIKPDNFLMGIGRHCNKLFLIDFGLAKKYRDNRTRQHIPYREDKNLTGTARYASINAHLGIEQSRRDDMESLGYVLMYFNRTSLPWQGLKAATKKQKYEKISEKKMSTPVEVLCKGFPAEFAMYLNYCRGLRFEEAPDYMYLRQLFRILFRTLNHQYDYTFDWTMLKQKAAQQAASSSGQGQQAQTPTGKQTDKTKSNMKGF

Molecular target: GST-tagged full-length human CK1α (Homo sapiens (Human), UniProt P48729)
Assay: Kinase enzymatic assay, mobility shift on LabChip system (AC50)
Type: biochemical
Settings: mean AC50; 5 μM ATP; 1 μM Profiler Pro FL-Peptide 16 substrate
Method: Enzymatic assays were performed using a mobility shift assay on the LabChip system. Purified kinase protein was incubated with ATP, substrate, and assay buffer (20 mM Hepes—pH 7.5; 5 mM MgCl2, and 0.01% Triton X-100). The assay reaction was initiated with 5 μM ATP and with each compound present. Compounds were tested at the KM,ATP for the protein target (GST-tagged full-length human CK1α, available from Carna Biosciences, Japan) or over a range of ATP concentrations between 5 μM and 9 μM. […] AC50 values were determined using phosphorylated and unphosphorylated substrates.

(Z)-cyclohexylmethyl 2-cyano-2-(5-phenyl-3-(piperazin-1-yl)pyrazin-2(1H)-ylidene)acetate or (Z)-cyclohexylmethyl 2-cyano-2-(6-phenyl-3-(piperazin-1-yl)pyrazin-2(1H)-ylidene)acetate
AC50: 0.136 µM
